{
  "source": "patent US9918989B2",
  "about": "“Combination therapies for malaria” (The Regents of the University of California, priority 2013, dated 2018)",
  "system": "Anopheles stephensi p38 MAPK",
  "experiment": "MK2 phosphorylation in LPS-stimulated ASE cells, western blot",
  "assay_type": "cell-based",
  "conditions": "ASE cells pre-incubated with 10 μM inhibitor, 2 h later 1 μg/ml LPS",
  "data": [
    {"smiles": "Cc1ccc(-n2nc(C(C)(C)C)cc2NC(=O)Nc2ccc(OCCN3CCOCC3)c3ccccc23)cc1", "note": "[BIRB 796, 1-[5-tert-butyl-2-(4-methylphenyl)pyrazol-3-yl]-3-[4-(2-morpholin-4-ylethoxy)naphthalen-1-yl]urea]", "values": [
      {"measurement": "p-MK2 levels (phosphorylation of MK2)", "value": "undetectable"}
    ]}
  ]
}
